Test results reported in US20100055093A1, “PAN-CELL SURFACE RECEPTOR-SPECIFIC THERAPEUTICS” (RECEPTOR BIOLOGIX INC., priority 2006, published 2010).
Like-named read-outs stand apart in the source and are kept apart here. Marks after values point to notes of the source that are not given here.

Key:
[1] = test system: ZR75-1 cells; experiment: Ligand-stimulated cell proliferation, Alamar Blue; format: cell-based, human
Procedure: Cell lines MCF7, ZR75-1, ME180 were purchased from ATCC and kept in 10% of FBS DMEM. Cells were seeded at 2000 per well in 96-well plate in 1% FBS supplemented DMEM. After 2-3 hr of seeding, increasing concentrations of candidate HER ECD derivatives were added to the culture in the present of ligands (EGF or HRGβ). Cells were incubated at 37° C. for about 72 hr. Cells relative density were measured by Alamar Blue method. Alamar Blue (Sigma) was prepared in PBS at concentration of 4 uM, added to the microplate at 1/10 volume of culture medium (final concentration 0.4 uM) and plates returned to the incubator. Fluorescence was read at Ex.=530 nm/Em.=590 nm after 2-4 hours at 37° C.

[2] = test system: A431 cells; experiment: Monolayer cell proliferation, crystal violet; format: cell-based, human
[3] = test system: H358 cells; experiment: Monolayer cell proliferation, crystal violet; format: cell-based; conditions: H358, Lung, monolayer culture
Procedure: (§1) Cell proliferation studies were conducted in serum-free medium as indicated. Cells were plated in 96-well tissue culture plates (Falcon #35-3075, Becton Dickinson, N.J.) at 2000 to 6000 cells per well, as appropriate for a cell line, and then grown overnight (15 to 18 hrs). For the cell proliferation studies done in serum containing medium, the cells were then treated with or without compounds and allowed to grow for 3 to 5 days. […] After plating cells in serum, the cells were grown overnight (15 to 20 hrs), then the cells were switched to serum-free medium and grown for 24 to 48 hrs (serum-starvation). […] Cell proliferation was quantified by crystal violet dye method as described previously (Sugarman et al., 1987). Briefly, the culture medium was decanted, the cells washed once with PBS, followed by addition of 50 μl/well 0.5% (w/v) crystal violet dye (Sigma-Aldrich, St Loius, Mo.) in methanol and incubation for 20 min. The plates were washed with water 3-times and then air-dried overnight. The cell-bound dye was eluted with 100 μl/well Sorenson's buffer (25 mM sodium citrate in 50% ethanol) for 15 min on a plate shaker. The plate was then read on a plate reader at 540 nm wavelength for absorbance, which was directly proportional to the amount of cells in the well.
(§2) Cell proliferation studies were conducted in either serum containing or in serum-free medium as indicated. Cells were plated in 96-well tissue culture plates (Falcon #35-3075, Becton Dickinson, N.J.) at 2000 to 6000 cells per well, as appropriate for a cell line, and then grown overnight (15 to 18 hrs). For the cell proliferation studies done in serum containing medium, the cells were then treated with or without compounds and allowed to grow for 3 to 5 days. For cell proliferation studies done in serum-free growth conditions. After plating cells in serum, the cells were grown overnight (15 to 20 hrs), then the cells were switched to serum-free medium and grown for 24 to 48 hrs (serum-starvation). […] Cell proliferation was quantified by crystal violet dye method as described previously (Sugarman et al., 1987). Briefly, the culture medium was decanted, the cells washed once with PBS, followed by addition of 50 μl/well 0.5% (w/v) crystal violet dye (Sigma-Aldrich, St Loius, Mo.) in methanol and incubation for 20 min. The plates were washed with water 3-times and then air-dried overnight. The cell-bound dye was eluted with 100 μl/well Sorenson's buffer (25 mM sodium citrate in 50% ethanol) for 15 min on a plate shaker. The plate was then read on a plate reader at 540 nm wavelength for absorbance, which was directly proportional to the amount of cells in the well.

[4] = test system: SUM149 cells; experiment: Monolayer cell proliferation, crystal violet; format: cell-based; conditions: SUM149, Breast, monolayer culture
Procedure: as §1, §2

[5] = test system: A431 s.c. tumor; format: in vivo, nude mice
Procedure: Mice were obtained from the commercial suppliers (Harlan, UK). The mice were 4-6 weeks old at the start of the study. Mice were maintained in sterile isolators within a barriered unit illuminated by fluorescent lights set to give a 12 hour light-dark cycle (on 07.00, off 19.00), as recommended in the United Kingdom Home Office Animals (Scientific Procedures) Act 1986. The room was air-conditioned by a system designed to maintain an air temperature range of 23±2° C. Mice were housed in groups of 2 or 5 during the procedure in plastic cages (Techniplast UK) with irradiated bedding and provided with both nesting materials and environmental enrichment. Sterile irradiated 2019 rodent diet (Harlan […] UK, product code […]) and autoclaved water was offered ad libitum. […] A431 cells were supplied by the PRECOS and maintained in vitro in RPMI 1640 culture medium (Gibco, Paisley, UK) containing 10% (v/v) heat inactivated foetal bovine serum (Sigma, Poole, UK) at 37° C. in 5% CO2 and humidified conditions. […] Tumor dimensions were recorded (calliper measurement of length and width and tumor cross-sectional area and volume calculated) three times weekly and body weight measured weekly. Each mouse remained in the study until terminated, or until necessitate removal of that mouse from the study. Animals were terminated if the tumor size becomes excessive or any adverse effects are noted. At termination the mice were anaesthetized (Hypnorm/Hynovel) and 1 ml blood removed by cardiac puncture, processed for plasma, frozen for both the pilot and therapeutic study. The mice were then terminated by an approved S1 method. For the therapeutic study, the tumors were excised, weighed, measured and fixed in formalin. Body weight data, tumor growth and final tumor weight were recorded and reported in spreadsheet and graphical format. Statistical analysis was performed if appropriate using Minitab. Pilot toxicity study was terminated after 12 days of dosing in order to collect plasma samples 3 hours after dosing. An extra group for the therapeutic study was added by PRECOS as below. Group 9: 30 mg/kg human IgG i.p. 3 times weekly. Iressa was prepared by PRECOS in 10% DMSO & 5% Cremaphor in PBS. Tumors were initiated with 2×10^6 cells per mouse for the therapeutic study. RB200h and IgG was dosed intravenously for the therapeutic study as requested by the sponsors. Due to adverse effects noted following the first dose in groups 2, 3 & 8 dosing was reverted back to i.p. for the remainder of the study.

[6] = 10 mg/kg RB200h three times weekly
[7] = Group 2, 10 mg/kg RB200h, group mean
[8] = Group 3, 30 mg/kg RB200h, group mean

Question: “RB200h: heterodimer: full length HER 1 ECD linked to full length HER 3 ECD via Fc domain (HER1-621/Fc and HER3-621/Fc with His tag)” was tested. Which “maximal inhibition of proliferation” value ([1]; ZR-75-1 cells stimulated by EGF, at about 1 nM (plateau up to about 600 nM)) did it give?
Answer: about 80%

Question: And the “maximal inhibition of proliferation” value ([1]; ZR-75-1 cells stimulated by HRG, at about 600 nM)?
Answer: about 80%

Question: What about the “RB200 Efficacy (growth inhibition of cells)” value ([2]; A431, Epidermoid, monolayer culture) of the same substance?
Answer: +++ (+++ = 31 to 50% growth inhibition of cells by RB200)

Question: And the EC50 ([2]; A431 epidermoid cancer cells, monolayer, read-out: EC50, inhibition of proliferation)?
Answer: 71 nM

Question: What about the “RB200 Efficacy (growth inhibition of cells)” value [3] of the same substance?
Answer: − (− = <10%)

Question: And the “RB200 Efficacy (growth inhibition of cells)” value [4]?
Answer: + (+ = 10 to 20%)

Question: And the A431 tumor growth [5, 6]?
Answer: did not significantly attenuate

Question: And the “trend to decreasing the tumor size” value [5, 6]?
Answer: 15-20%

Question: What about the “reduction of final tumor weight” value ([5]; 30 mg/kg RB200h three times weekly (Group 3)) of the same substance?
Answer: 50%

Question: And the “tumor growth (rate) in comparison to the vehicle group” value ([5]; 30 mg/kg three times weekly, dosing from day 10, study terminated at day 26)?
Answer: significantly reduced

Question: And the “Tumor volume (mm^3) Day 7” value [5, 7]?
Answer: 39.2 mm^3

Question: And the “Tumor volume (mm^3) Day 10” value [5, 7]?
Answer: 72.2 mm^3

Question: And the “Tumor volume (mm^3) Day 12” value [5, 7]?
Answer: 102.5 mm^3

Question: What about the “Tumor volume (mm^3) Day 14” value [5, 7] of the same substance?
Answer: 149.3 mm^3

Question: What about the “Tumor volume (mm^3) Day 17” value [5, 7] of the same substance?
Answer: 221.5 mm^3

Question: And the “Tumor volume (mm^3) Day 19” value [5, 7]?
Answer: 278.5 mm^3

Question: What about the “Tumor volume (mm^3) Day 21” value [5, 7] of the same substance?
Answer: 365.7 mm^3

Question: What about the “Tumor volume (mm^3) Day 24” value [5, 7] of the same substance?
Answer: 564.3 mm^3

Question: What about the “Tumor volume (mm^3) Day 25” value [5, 7] of the same substance?
Answer: 596.1 mm^3

Question: And the “Tumor volume (mm^3) Day 26” value [5, 7]?
Answer: 676.7 mm^3

Question: What about the “Tumor weight” value ([5]; Group 2, 10 mg/kg RB200h, final tumor weight, group mean) of the same substance?
Answer: 0.451 g

Question: What about the “Tumor volume (mm^3) Day 7” value [5, 8] of the same substance?
Answer: 40.0 mm^3

Question: And the “Tumor volume (mm^3) Day 10” value [5, 8]?
Answer: 53.7 mm^3

Question: And the “Tumor volume (mm^3) Day 12” value [5, 8]?
Answer: 72.5 mm^3

Question: What about the “Tumor volume (mm^3) Day 14” value [5, 8] of the same substance?
Answer: 107.7 mm^3

Question: What about the “Tumor volume (mm^3) Day 17” value [5, 8] of the same substance?
Answer: 154.3 mm^3

Question: What about the “Tumor volume (mm^3) Day 19” value [5, 8] of the same substance?
Answer: 225.0 mm^3

Question: What about the “Tumor volume (mm^3) Day 21” value [5, 8] of the same substance?
Answer: 298.1 mm^3

Question: What about the “Tumor volume (mm^3) Day 24” value [5, 8] of the same substance?
Answer: 370.3* mm^3

Question: And the “Tumor volume (mm^3) Day 25” value [5, 8]?
Answer: 440.4* mm^3

Question: And the “Tumor volume (mm^3) Day 26” value [5, 8]?
Answer: 462.5* mm^3

Question: What about the “Tumor weight (g)” value ([5]; Group 3, 30 mg/kg RB200h, final tumor weight, group mean) of the same substance?
Answer: 0.270* g
